Test: solubility and stability characteristics compared to human amylin
Format: physicochemical

solubility characteristics	stability characteristics	Structure (SMILES)
more desirable	more desirable	CC(C)C[C@H](NC(=O)[C@H](CCCNC(=N)N)NC(=O)[C@H](CCC(N)=O)NC(=O)[C@@H](NC(=O)[C@H](C)NC(=O)[C@@H]1CSSC[C@H](NC(=O)[C@@H](N)CCCCN)C(=O)N[C@@H](CC(N)=O)C(=O)N[C@@H]([C@@H](C)O)C(=O)N[C@@H](C)C(=O)N[C@@H]([C@@H](C)O)C(=O)N1)[C@@H](C)O)C(=O)N[C@@H](C)C(=O)N[C@@H](CC(N)=O)C(=O)N[C@@H](Cc1ccccc1)C(=O)N[C@@H](CC(C)C)C(=O)N[C@H](C(=O)N[C@@H](Cc1c[nH]cn1)C(=O)N[C@@H](CO)C(=O)N[C@@H](CO)C(=O)N[C@@H](CC(N)=O)C(=O)N[C@@H](CC(N)=O)C(=O)N[C@@H](Cc1ccccc1)C(=O)NCC(=O)N1CCC[C@H]1C(=O)N[C@H](C(=O)N[C@@H](CC(C)C)C(=O)N1CCC[C@H]1C(=O)N1CCC[C@H]1C(=O)N[C@H](C(=O)N[C@@H](CC(N)=O)C(=O)N[C@H](C(=O)NCC(=O)N[C@@H](CO)C(=O)N[C@@H](CC(N)=O)C(=O)N[C@H](C(=O)N[C@@H](Cc1ccc(O)cc1)C(N)=O)[C@@H](C)O)C(C)C)[C@@H](C)O)C(C)C)C(C)C [^25 Pro^26 Val^28,29 Pro-h-amylin]
more desirable	more desirable	CC[C@H](C)[C@H](NC(=O)[C@@H]1CCCN1C(=O)CNC(=O)[C@H](Cc1ccccc1)NC(=O)[C@H](CC(N)=O)NC(=O)[C@H](CC(N)=O)NC(=O)[C@H](CO)NC(=O)[C@H](CO)NC(=O)[C@H](CCCNC(=N)N)NC(=O)[C@@H](NC(=O)[C@H](CC(C)C)NC(=O)[C@H](Cc1ccccc1)NC(=O)[C@H](CC(N)=O)NC(=O)[C@H](C)NC(=O)[C@H](CC(C)C)NC(=O)[C@H](CCCNC(=N)N)NC(=O)[C@H](CCC(N)=O)NC(=O)[C@@H](NC(=O)[C@H](C)NC(=O)[C@@H]1CSSC[C@H](NC(=O)[C@@H](N)CCCCN)C(=O)N[C@@H](CC(N)=O)C(=O)N[C@@H]([C@@H](C)O)C(=O)N[C@@H](C)C(=O)N[C@@H]([C@@H](C)O)C(=O)N1)[C@@H](C)O)C(C)C)C(=O)N[C@@H](CC(C)C)C(=O)N1CCC[C@H]1C(=O)N[C@@H](CO)C(=O)N[C@H](C(=O)N[C@@H](CC(N)=O)C(=O)N[C@H](C(=O)NCC(=O)N[C@@H](CO)C(=O)N[C@@H](CC(N)=O)C(=O)N[C@H](C(=O)N[C@@H](Cc1ccc(O)cc1)C(N)=O)[C@@H](C)O)C(C)C)[C@@H](C)O [^18 Arg^25,28 Pro-h-amylin]
